{"source": "patent US10335367B2", "about": "“Use of selected anticholinergic zwitterions” (Bodor Laboratories, Inc., priority 2015, dated 2019)", "origin": "cited, not measured here", "conditions": "rabbit, in vivo, cited from earlier work", "note": "Where two headings read alike, the source gives them in different places."}
{"smiles": "C[N+]1(CC(=O)[O-])CCC(OC(=O)[C@](O)(c2ccccc2)C2CCCC2)C1", "note": "(some centres unmarked)", "values": [{"measurement": "elimination from systemic circulation", "result": "rapid elimination from systemic circulation"}, {"measurement": "elimination from systemic circulation", "setting": "listed as compound (ii)", "result": "rapid elimination from the systemic circulation"}]}
